The source of these data is US7045533B2, “Naphthalene derivatives” (Novartis AG, priority 2000, dated 2006).

Amino acid sequences for entries named in this document (tags omitted).
UniProt P21554, whole entry: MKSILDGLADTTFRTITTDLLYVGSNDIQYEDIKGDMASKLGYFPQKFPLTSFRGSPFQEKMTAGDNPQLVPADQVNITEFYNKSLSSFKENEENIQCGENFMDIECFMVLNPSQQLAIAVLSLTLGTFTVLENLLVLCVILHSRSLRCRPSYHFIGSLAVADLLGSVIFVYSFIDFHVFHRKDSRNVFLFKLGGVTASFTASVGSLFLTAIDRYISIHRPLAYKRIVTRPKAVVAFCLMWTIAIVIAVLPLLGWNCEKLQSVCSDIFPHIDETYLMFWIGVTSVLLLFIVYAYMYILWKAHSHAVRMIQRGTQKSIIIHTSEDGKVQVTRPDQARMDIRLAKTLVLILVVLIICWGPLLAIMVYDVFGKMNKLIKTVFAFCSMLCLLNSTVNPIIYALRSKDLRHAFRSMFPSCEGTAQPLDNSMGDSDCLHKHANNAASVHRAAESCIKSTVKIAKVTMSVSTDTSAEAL

In the assay the target is T1, human CB1 receptors (Homo sapiens, UniProt P21554).
T1 construct: purchased Receptor Biology, Beltsville, Md; host or cells: pEAK cells (transfected)
The assay can be described thus: Test I: CB1 Receptor Binding Assay. The conditions noted are these: [3H]CP55940 displacement, membranes from pEAK cells transfected with human CB1 receptors; Ki calculated from IC50 (Cheng-Prussoff); read-out: K1.

SMILES strings stand for the structures.

Regarding `CCCCCOc1ccc(C(=O)c2cccc3ccccc23)c2ccccc12` [Example 1, naphthalen-1-yl-(4-pentyloxy-naphthalen-1-yl)-methanone], the Ki was 15 ± 4 nM.
